# High-throughput results deposited in PubChem BioAssay by National Center for Advancing Translational Sciences (NCATS).
# miR-21 reporter – miR-21 reporter, rising signal. HeLa miR-21 FLuc reporter, luciferase, 48 h. Potency, µM (highest dose often 38.3 µM), for the others: at the highest dose reporter change, positive = more light. 340,000 tested, under 10 active. AID 2288; active = well fitted rising curve with a large enough effect; inconclusive = small, poorly fitted or top-dose-only effect; inactive = no such curve, though single readings can be large or run the other way;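 further: % of control where 0% means no effect; miR-21 action dims this reporter so a rising signal means less miR-21 action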
#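 HeLa cells stably expressing CMV-driven firefly luciferase with a downstream miR-21 binding sequence, endogenously expressing miR-21, were treated with titrations (up to about 40uM final) for 48 hours at 37 degree Celsius. Luciferase luminescence was read after lysis.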
# PINK1 modulator – changes PINK1 expression | PINK1 immunofluorescence, high-content cytometry, 24 h | Potency, µM (top dose mostly 76.6 µM), without a hit: at the top dose activation (PINK1 increase), most hits filed as activators | AID 624263 | hit rate 0.2% among 410,000; active means well fitted activation curve with a large enough effect; inconclusive means small, poorly fitted or top-dose-only effect; cell line not stated here; further: potency means the concentration at half of the fitted maximal effect; % of control where 0% means no effect; nearly all actives have a fitted effect of over 65% in size
#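 Readout is PINK1 immunofluorescence, quantified alongside mitochondrial, cell and nuclear markers by laser-scanning microplate cytometry. Cells from a stable line were exposed to compound titrations (5 concentrations) for 24 hours, with CCCP controls.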
# ERG Ets-DNA blk – inhibitors of human ERG Ets domain-DNA interaction. P11308. Potency, µM (highest dose often 76.9 µM), without a hit: top-dose FP activity, negative = inhibition, most hits filed as inhibitors. fluorescence polarization, His-ERG Ets domain / labelled DNA. hit rate 0.028% among 370,000; active means well fitted inhibition curve with a large enough effect in the polarisation, with a control signal flat; inconclusive means small, poorly fitted or top-dose-only effect, or effect the other way, or a change in a side signal; inactive means no such curve, though single readings can be large or run the other way; the % refers to the polarisation;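 further: polarization taken with two DNA probes labelled with fluorescein and Texas red; potency means the concentration at half of the fitted maximal effect; % of control where 0% means no effect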
#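 His-tagged ERG Ets domain (1 uM in the protein solution; 300mM KCl, 50mM Tris-HCl, 1mM EDTA, 1mM DTT, pH 7.5) received compound, then a probe mix of 5 nM fluorescein-DNA and 100nM Texas-615-DNA. Fluorescence polarization was read for both dyes.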
# PTHR1 agonist – agonists of human PTHR1 parathyroid hormone receptor | HEK293 GP2 PTHR1 cells, GloSensor cAMP luminescence, 1 h | Potency, µM (doses to about 115 µM), without a hit: top-dose activation, actives largely listed as activators | hit rate 0.075% among 410,000; further: potency means the concentration at half of the fitted maximal effect; nearly all actives have a fitted effect of over 55% in size
#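 HEK-293-derived GP2 cells expressing PTHR1 and a GloSensor cAMP reporter, 3,000/well, plated overnight, given luciferin plus IBMX (each 0.5 mM as added) for 1 h at 37 °C, then compound for 1 h at 37 °C. Luminescence was read after 15 min at room temperature.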
# ALOX12 inh – blocks human arachidonate 12S-lipoxygenase; P18054; purified 12hLO, xylenol orange hydroperoxide absorbance; Potency, µM (series often up to 108 µM), for the others: at the top dose activity change, negative = inhibition, usual class: inhibitors; hit rate 1.1% among 580,000; further: potency means the concentration at half of the fitted maximal effect; on the % scale 0 is the no-effect control and ±100 the full control effect
#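 Purified human 12hLO at 150 nM in 25 mM Hepes, 0.01% Triton X-100, pH 7.0, preincubated 15 min at room temperature with compound. Reaction started with 40 uM arachidonic acid, 30 min at room temperature. Hydroperoxide measured by Fe-xylenol orange, 573/405 nm absorbance ratio.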
# Giardia killer – kills Giardia lamblia | Giardia lamblia trophozoite viability | activity change, % at 7.66 µM, hits read low | hit rate 0.15% among 340,000 | AID 540267; in the data active means activity change below about -80%; inconclusive means between about -30% and that limit;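 further: parasites exposed to compound for two days anaerobically before the ATP read; on the % scale 0 is the no-effect control and ±100 the full control effect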
#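 Giardia trophozoites, 100 cells per well, were exposed to compounds for 48 hrs at 37 deg C under anaerobic conditions; viability was then read as ATP content by bioluminescence after 15-30 min at room temperature.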
# Numbers without * were called inactive; i = inactive; ? = inconclusive; nt = no result; ! = not confirmed by another sample; [ ] = another dose, or the depositor's remark. Sampled rows, rich in hits. Any-hit rate of the full collection: about 1.3%. Unless noted, the call rests on the fitted dose curve; in most records, active means well fitted curve in the direction sought with a large enough effect; inconclusive means small, poorly fitted or top-dose-only effect, or another doubt; inactive means no such curve, though single readings can be large; an effect the other way counts as inactive or inconclusive.
item | SMILES | Giardia killer | PINK1 modulator | ALOX12 inh | PTHR1 agonist | miR-21 reporter | ERG Ets-DNA blk
1 | COc1cc(C(=O)NC2CCCCN(C)C2=O)cc(OC)c1OC (stereo not given) | nt | nt | 0% | nt | nt | nt
2 | CN(C)c1ccc(NCc2cccc(Br)c2)cc1 | nt | nt | 7.9µM* | nt | nt | nt
3 | CN(C)c1ccc(CNc2ncc(Br)cc2Br)cc1 | 9 | 0% | 1% | -72%[57.5 µM] | -42% | -3%
4 | Clc1ccc2nc(-c3cccc(Br)c3)cn2c1 | nt | nt | 13µM* | nt | nt | nt
5 | CC(/C=N/n1c(-c2ccc(Cl)cc2)n[nH]c1=S)=C\c1ccco1 | -16 | 4% | 32µM* | i | 7% | -3%
6 | S=c1[nH]nc(-c2ccccn2)n1/N=C/c1ccc(Cl)cc1 | 7 | 0% | 28µM* | -18% | 1% | -7%
7 | C=CCn1c(-c2ccccn2)n[nH]c1=S | nt | 0% | 10µM* | i | nt | nt
8 | S=c1[nH]nc(-c2ccccc2)n1/N=C/c1ccc(Cl)cc1 | 21 | 4% | 22µM* | -31% | -6% | 17%

# The results go on:
item | SMILES | Giardia killer | PINK1 modulator | ALOX12 inh | PTHR1 agonist | miR-21 reporter | ERG Ets-DNA blk
9 | S=c1[nH]nc(-c2ccccn2)n1/N=C/c1cccc2ccccc12 | 2 | 1% | 5.6µM* | -21% | -2% | 3%
10 | CC(C)c1ccc(S(=O)(=O)N2CCN(C(C)C(=O)Nc3ccccc3-c3ccccc3)CC2)cc1 (stereo not given) | 9 | 3% | -22% | -1% | -3% | 5%
11 | COc1ccccc1Nc1nc(-c2cc(C)ccc2C)cs1 | nt | nt | 10µM* | nt | nt | nt
12 | Cc1ccc(Nc2nc(-c3ccc(C)cc3C)cs2)cc1 | nt | nt | 6.3µM* | nt | nt | nt
13 | CCCC(C)C(=O)Nc1nc(C)c(-c2csc(Nc3ccccc3OC)n2)s1 (stereo not given) | -2 | 4% | 45µM* | 6% | 20% | -3%
14 | Cc1ccc(Nc2nc(-c3c(C)nc4sccn34)cs2)cc1 | nt | nt | 7.1µM* | nt | nt | nt
15 | COc1ccccc1Nc1nc(C)cs1 | -4 | 1% | ? | -12% | -18% | 0%
16 | COc1ccc(C(=O)N2CCc3cc(OC)c(OC)cc3C2c2ccc(OC)c(OC)c2)cc1 (stereo not given) | -4 | 2% | 1% | 13% | 7% | -1%

# Part of the list above, set out differently.
14: Cc1ccc(Nc2nc(-c3c(C)nc4sccn34)cs2)cc1
  Giardia killer = nt	PINK1 modulator = nt	ALOX12 inh = 7.1µM*	PTHR1 agonist = nt	miR-21 reporter = nt	ERG Ets-DNA blk = nt
15: COc1ccccc1Nc1nc(C)cs1
  Giardia killer = -4	PINK1 modulator = 1%	ALOX12 inh = ?	PTHR1 agonist = -12%	miR-21 reporter = -18%	ERG Ets-DNA blk = 0%

# Compounds listed so far that have a carbonyl joined to an NH by a bond outside any ring, in the order listed:
item | SMILES | Giardia killer | PINK1 modulator | ALOX12 inh | PTHR1 agonist | miR-21 reporter | ERG Ets-DNA blk
1 | COc1cc(C(=O)NC2CCCCN(C)C2=O)cc(OC)c1OC (stereo not given) | nt | nt | 0% | nt | nt | nt
10 | CC(C)c1ccc(S(=O)(=O)N2CCN(C(C)C(=O)Nc3ccccc3-c3ccccc3)CC2)cc1 (stereo not given) | 9 | 3% | -22% | -1% | -3% | 5%
13 | CCCC(C)C(=O)Nc1nc(C)c(-c2csc(Nc3ccccc3OC)n2)s1 (stereo not given) | -2 | 4% | 45µM* | 6% | 20% | -3%

# New compounds follow.
item | SMILES | Giardia killer | PINK1 modulator | ALOX12 inh | PTHR1 agonist | miR-21 reporter | ERG Ets-DNA blk
17 | Cc1nnc(NC(=O)CCSc2ccccc2)s1 | -7 | 3%[38.3 µM] | 23% | -38% | -4% | -4%
18 | CNC(=O)[C@H]1C[C@H](Oc2ccccc2)CN1Cc1cccn1C | nt | nt | 42% | nt | nt | nt
19 | O=C(Nc1ccc([N+](=O)[O-])cn1)C1CC1 | 9 | -2% | -4% | i | 6% | 11%
20 | N#CCC(=O)c1ccc(N)cc1 | nt | nt | -47% | nt | nt | nt
21 | COc1cccc(/C=N/n2nnnc2N)c1OCC#N | -2 | 0% | 0% | -17% | nt | 3%
22 | COc1ccc(Nc2nc(-c3ccc(OC)cc3)cs2)cc1 | 9 | 1% | -24% | -16% | -39% | 8%
23 | COc1ccc(Nc2nc(-c3ccc(F)cc3F)cs2)cc1 | nt | nt | 16µM* | nt | nt | nt
24 | O=C(O)CCCNS(=O)(=O)/C=C/c1ccccc1 | 2 | 2% | 0% | -24% | 3% | 2%

# New compounds follow.
item | SMILES | Giardia killer | PINK1 modulator | ALOX12 inh | PTHR1 agonist | miR-21 reporter | ERG Ets-DNA blk
25 | COc1ccc(F)cc1C(=O)C(=O)O | nt | nt | 8.9µM* | nt | nt | nt
26 | O=C(CCC(=O)Nc1ccc(F)cc1)N/N=C/c1cccc(Br)c1 | -17 | 8% | -18% | -11% | -6% | -4%
27 | COc1ccccc1N1C(=O)C=C(Sc2nc(C)cc(C)n2)C1=O | -12 | 0% | 10µM* | -6% | -2% | ?
28 | Cc1cc(=O)n(Cc2ccccc2)c(O)c1C#N | -7 | 2% | 18µM* | -1% | 1% | 3%
29 | Cc1cc(=O)n(CCCO)c(O)c1C#N | 6 | 0% | ? | i | 3% | 6%
30 | Cc1nn(CCc2nc(-c3ccccc3)cs2)c2[nH]c(=O)cc(C(F)(F)F)c12 | nt | nt | 7.1µM* | nt | nt | nt
31 | Cc1nn(CCc2nc(-c3ccco3)cs2)c2[nH]c(=O)cc(C(F)(F)F)c12 | 31 | nt | 7.9µM* | 0%[57.5 µM] | -1% | nt
32 | CCCCNC(=O)c1cc([N+](=O)[O-])[nH]n1 | -16 | 2% | -26% | i | -2% | -3%
33 | CC(C)=CCc1c2c(c3occ(-c4ccc(O)c(O)c4)c(=O)c3c1O)C=CC(C)(C)O2 | -16 | 0% | 40µM*! | -89% | nt | nt
